Tests used:
Homo sapiens [1] = species on record: Homo sapiens; test: Selectivity ratio of Ki for DOR (unknown origin) to Ki for KOR (unknown origin)
Homo sapiens [2] = species on record: Homo sapiens; test: Selectivity ratio of Ki for MOR (unknown origin) to Ki for KOR (unknown origin)

## N=C(N)Nc1ccc2[nH]c3c(c2c1)C[C@@]1(O)[C@H]2Cc4ccc(O)c5c4[C@@]1(CCN2CC1CC1)[C@H]3O5
Homo sapiens [1]
  Ratio Ki: 250
Homo sapiens [2]
  Ratio Ki: 120
